Assay results taken from patent US20190119407A1.
Blank lines part the entries; values can stand above or below the substance they belong to.

Key:
human TL1A (human) = human TL1A (human) (UniProt O95150); assay: cell-based or functional assay
[1] = target: cynomolgus TNF-α (cynomolgus monkey) (UniProt P79337); assay: cell-based or functional assay
[2] = target: cynomolgus TNF-α (cynomolgus monkey) (UniProt P79337); assay: SPR, mAb captured on anti-human Fc chip, TNF injected, 1:1 model
human TNF-α (human) = human TNF-α (human) (UniProt P01375); assay: cell-based or functional assay

Activity TL1A (pM) (human TL1A (human)): 151 pM
Substance: Adalimumab IgG-9C8 scFv + CC, iPS 369992 (bispecific antibody)

Activity TL1A (pM) (human TL1A (human)): 140 pM
Substance: Adalimumab IgG-9C8 scFv, iPS 369989 (bispecific antibody)

IC50 (pM) NFkB, Cyno TNF (20 pM) [1]: 180 pM
Kd [2]: 0.087 nM
koff [2]: 5.5e-05 s⁻¹
kon [2]: 640000 M⁻¹ s⁻¹
Substance: adalimumab (antibody)

hu TL1A (pM) (human TL1A (human)): 47.1 pM
hu TL1A Fold Change (human TL1A (human)): 0.312 fold
hu TNFα (pM) (human TNF-α (human)): 36.8 pM
hu TNFα Fold Change (human TNF-α (human)): 0.254 fold
Substance: iPS 377073 (bispecific antibody)
